In data set [1] the target is HSA Site II (Homo sapiens, UniProt P02768). As to conditions: 400 μM, pH 7.4.
The subject of data set [2] is AGP Site A and B. As to conditions: human, 400 μM, pH 7.4.
Data set [3] deals with AGP Site A and B. As to conditions: pH 7.4.

Chains of the proteins cited; added tags and fusions are not shown. Residues count along the entry.
UniProt P02768, 25-609: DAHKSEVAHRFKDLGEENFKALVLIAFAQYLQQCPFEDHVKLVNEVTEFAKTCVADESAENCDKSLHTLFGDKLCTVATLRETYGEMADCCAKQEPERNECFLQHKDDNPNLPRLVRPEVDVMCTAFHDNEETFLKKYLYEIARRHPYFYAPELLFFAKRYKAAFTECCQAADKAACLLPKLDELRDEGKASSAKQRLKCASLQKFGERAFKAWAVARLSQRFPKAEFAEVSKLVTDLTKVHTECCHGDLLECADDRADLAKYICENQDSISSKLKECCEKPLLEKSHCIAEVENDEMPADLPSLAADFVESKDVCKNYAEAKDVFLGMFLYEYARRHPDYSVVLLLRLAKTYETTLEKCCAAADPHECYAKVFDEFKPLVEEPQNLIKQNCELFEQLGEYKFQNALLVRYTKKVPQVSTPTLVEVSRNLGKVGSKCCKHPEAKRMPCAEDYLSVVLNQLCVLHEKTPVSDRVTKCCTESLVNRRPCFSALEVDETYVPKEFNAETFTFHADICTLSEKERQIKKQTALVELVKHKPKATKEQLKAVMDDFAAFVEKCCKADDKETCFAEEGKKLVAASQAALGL

Where only a bound is given, the exact number is not on record here.

`CC(C)NCC(O)COc1cccc2ccccc12` (stereo not shown) [PPL, propranolol]: in data set [1], the “Free drug ratio (%) of ^14C-DZP” value was 2.76%. For the same molecule, in data set [2], the “Change ratio (time) of ^3H-PPL free drug ratio” value is on record as 2.90 time and the “Free drug ratio (%) of ^3H-PPL” value was 34.28%. Further, the “Difference of free drug ratio of control, human serum 2 compared with normal male serum” value in data set [3] was at least 2.3 times.

For the origin of these results see patent US7175991B2, “Method of measuring binding site on plasma protein of plasma protein-binding drug and method of measuring plasma protein mutation” (Nihon Medi-Physics Co., Ltd., priority 2002, dated 2007).
